Experimental findings from patent publication US20040219600A1, “Method for determining sensitivity to environmental toxins and susceptibility to parkinson's disease” (priority 2002, published 2004) are described below.

For one assay, the system named is GSTpi. Kind of assay: Northern analysis of GSTpi mRNA in brain after MPTP. The note with it: 40 minutes after administration of MPTP. Format: in vivo, mouse. From the text:
(§1) Studies have shown that different members of the glutathione S-transferase family (pi, alpha and mu) are differentially expressed throughout the body (Johnson J A, el Barbary A, Kornguth S E, Brugge J F, Siegel F L, Glutathione S-transferase Isoenzymes in Rat Brain Neurons and Glia, J. Neurosci. 13:2013-23 (1993)) although at this time no information has been published on the expression of these genes in the substantia nigra.

A further assay relates to GSTmu. Kind of assay: Northern analysis of GSTmu mRNA in brain after MPTP. Format: in vivo, mouse. The note with it: after administration of MPTP.
Excerpt: as §1

On to `CN1CC=C(c2ccccc2)CC1` [MPTP, 1-methyl-4-phenyl-1,2,3,6-tetrahydropyridine], for which the “mRNA levels of GSTpi” value in the assay with GSTpi (C57B1/6 animals) is listed as “may be decreasing”; in the assay on GSTpi (SW animals) it was “not in SW animals”. Also, the “levels of GSTmu” value with GSTmu is recorded as “do not appear to be changed”.
